Sequences of proteins named here, by UniProt entry; tags and fusion partners are left off. Residues count along the entry.
UniProt P22303, 32-614: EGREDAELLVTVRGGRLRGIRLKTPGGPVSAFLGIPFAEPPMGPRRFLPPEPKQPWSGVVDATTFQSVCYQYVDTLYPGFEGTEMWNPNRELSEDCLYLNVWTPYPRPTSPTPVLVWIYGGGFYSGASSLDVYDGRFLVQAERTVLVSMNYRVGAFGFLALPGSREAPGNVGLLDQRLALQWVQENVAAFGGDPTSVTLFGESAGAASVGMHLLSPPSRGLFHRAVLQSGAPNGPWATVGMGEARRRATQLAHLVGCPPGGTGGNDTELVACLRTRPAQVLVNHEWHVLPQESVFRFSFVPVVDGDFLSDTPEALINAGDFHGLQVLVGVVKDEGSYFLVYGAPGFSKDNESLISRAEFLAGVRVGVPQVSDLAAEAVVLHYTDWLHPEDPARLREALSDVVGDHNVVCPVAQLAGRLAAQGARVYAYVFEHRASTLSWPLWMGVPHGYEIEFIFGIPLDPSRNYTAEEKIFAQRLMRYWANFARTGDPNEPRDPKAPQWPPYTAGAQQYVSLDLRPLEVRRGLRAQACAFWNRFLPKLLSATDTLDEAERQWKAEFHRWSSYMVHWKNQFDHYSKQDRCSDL

In paper PMC3793267 (Biomarkers, 2008):

Target: recombinant human AChE (Homo sapiens, UniProt P22303)
Experiment: Inhibition of recombinant AChE by pesticide-oxons
Type: biochemical

CCOP(=O)(OCC)OC(=CCl)c1ccc(Cl)cc1Cl [Chlorfenvinphos (oxon), 2-chloro-1-(2,4-dichlorophenyl)vinyl diethyl phosphate]
IC50: ~1500 nM
